Eight molecules from US20040048790A1 can be followed below.

Common to all, as to conditions: remark: other sources report otherwise
The target in assay [1] is HLA-A*0206 (human). The assay is described as follows: competition vs 125I probe peptide, purified HLA.
Assay [2] deals with HLA-A*0206 (human). The assay is described as follows: 125I-probe peptide inhibition, purified HLA.
For a further assay, the target named is HLA-B*3501 (human). In words: 125I-probe peptide inhibition, purified HLA.
Another assay addresses HLA-A*3101 (human). In words: 125I-probe peptide inhibition, purified HLA.
The target in a further assay is HLA-B*5301 (human). The assay is described as follows: 125I-probe peptide inhibition, purified HLA.
The next assay has as its target HLA-B*0702 (human). In words: 125I-probe peptide inhibition, purified HLA.
Assay [3] addresses HLA-A*0202 (human). In words: competition vs 125I probe peptide, purified HLA.
Assay [4] has as its target HLA-A*0202 (human). In words: 125I-probe peptide inhibition, purified HLA.
Assay [5] has as its target HLA-A*6802 (human). In words: competition vs 125I probe peptide, purified HLA.
Assay [6] deals with HLA-A*6802 (human). The assay is described as follows: 125I-probe peptide inhibition, purified HLA.

In general, IC50 refers to the concentration that gives 50% inhibition.

Consider FLHSGTAKSV [p53.113], for which the IC50 with HLA-A*0206 (human) [1] and with HLA-A*0206 (human) [2] was 4620 nM in each case.

In turn, APAPAPSW [p53.84] gave an IC50 in the assay with HLA-B*3501 (human) of 3270 nM.

In turn, SVSRHKKLMFR [p53.376.V2R11] gave an IC50 with HLA-A*3101 (human) of 184 nM.

With APAPAPSI [p53.84.18], the IC50 in the assay with HLA-B*5301 (human) was 291 nM; with HLA-B*0702 (human), 275 nM. For the molecule ALPPVAPV [p53.69L2V8], the IC50 with HLA-A*0202 (human) [3] turned out to be 7170 nM; in the assay with HLA-A*0206 (human) [1], 285 nM; in the assay with HLA-A*0202 (human) [4], 7170 nM; in the assay with HLA-A*0206 (human) [2], 285 nM. The molecule GVRVRAMAIYK [p53.154.V2] returned an IC50 with HLA-A*3101 (human) of 419 nM. The molecule CLLAKTCPV [p53.135L2] showed an IC50 with HLA-A*0202 (human) [4] of 506 nM.

B1: p53.132B4V9 (peptide)
peptide: KMFBQLAKV
modifications: here or on the partner: B at position 4 = alpha-amino butyric acid (in place of Cys)
As to B1, the IC50 with HLA-A*6802 (human) [5] and in the assay with HLA-A*6802 (human) [6] was 8890 nM in each case.
